# Some of the results follow.
# Amino acid sequences for entries named in this document (tags omitted). A change or cut given only in a name is not applied to a line headed by its entry.
# UniProt Q9BVK6: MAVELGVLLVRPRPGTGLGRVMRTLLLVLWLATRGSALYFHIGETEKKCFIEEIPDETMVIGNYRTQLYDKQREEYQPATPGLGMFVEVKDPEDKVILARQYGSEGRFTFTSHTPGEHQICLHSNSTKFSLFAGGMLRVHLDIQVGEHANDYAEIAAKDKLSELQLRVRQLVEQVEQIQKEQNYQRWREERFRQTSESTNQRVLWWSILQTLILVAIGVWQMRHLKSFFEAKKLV
# Target: TMED9 (UniProt Q9BVK6)
# Details: virion
substance,measurement,value
"TMED10, P49755",cross-linked residues,K140 - K160

# Source: paper PMC12214610
